Reference: patent US20130197089A1, “COMPOSITIONS FOR THE TREATMENT OF ACTINIC KERATOSIS” (DOLORGIET GMBH & CO. KG, priority 2012, published 2013)

Experiments:
[1] = test system: actinic keratosis lesions; experiment: Preliminary study: 5% ibuprofen gel vs 3% diclofenac gel in patients with actinic keratosis; conditions: scale -2 to +4
Protocol: The study was performed according to the relevant criteria and was approved by the ethics commission of the dermatological society of Slovakia.
(§1) The application frequency was twice a day. The success of the treatment was evaluated after 30, 60 and 90 days.
(§2) When included in the study, the severity of the lesions was evaluated according to the so-called BSI (baseline severity index) score from 0 to 3. Patients having a BSI score of 1 and 2 were exclusively included in the study.
BSI score (baseline severity index score 1-3) • 0=no actinic keratosis (AK) visible • 1=clearly visible lesion • 2=many small, moderately thick lesions or a few large scaly lesions visible • 3=many thick hypertrophic lesions that are clearly visible and palpable with clear bounds.
(§3) The main target parameters within the scope of effectiveness were the total number of lesions in the treatment area and the IGII (investigator global improvement index) score from −2 to +4. From round 1, the evaluations were always done in comparison with the preliminary round.
(§4) IGII (investigator global improvement index) • −2 significant worsening • −1 slight worsening • 0 unchanged • 1 slight improvement • 2 improvement • 3 significant improvement • 4 complete healing
The IGII was measured between each two rounds.

[2] = test system: actinic keratosis lesions; experiment: Second study: 10% ibuprofen gel vs 3% diclofenac gel in patients with actinic keratosis; conditions: for Investigator global improvement index (IGII): scale -2 to +4
Protocol: as §1, §2, §3, §4
The design of the study was the same as that of the first study.

[3] = Forehead, V0 (start of the study)

SMILES: O=C(O)Cc1ccccc1Nc1c(Cl)cccc1Cl [Diclofenac, diclofenac]
- Investigator global improvement index (IGII) ([1]; Face, V0 (start of the study)): 0
- Investigator global improvement index (IGII) ([1]; Face, V3 (after 90 days of treatment), 5% ibuprofen gel or 3% diclofenac gel): 1.7
- Investigator global improvement index (IGII) [1, 3]: 0
- Investigator global improvement index (IGII) ([1]; Forehead, V3 (after 90 days of treatment), 5% ibuprofen gel or 3% diclofenac gel): 1.55
- Investigator global improvement index (IGII) ([1]; Hand, V0 (start of the study)): 0
- Investigator global improvement index (IGII) ([1]; Hand, V3 (after 90 days of treatment), 5% ibuprofen gel or 3% diclofenac gel): 1
- Investigator global improvement index (IGII) ([1]; Scalp, V0 (start of the study)): 0
- Investigator global improvement index (IGII) ([1]; Scalp, V3 (after 90 days of treatment), 5% ibuprofen gel or 3% diclofenac gel): 1.75
- Therapeutic result in treating slight and moderate keratosis lesions (in words) ([2]; 10% ibuprofen gel or 3% diclofenac gel, 90 days): good
- Investigator global improvement index (IGII) ([2]; Face, V0 (start of the study)): 0
- Investigator global improvement index (IGII) ([2]; Face, V3 (after 90 days of treatment), 10% ibuprofen gel or 3% diclofenac gel): 2.17
- Investigator global improvement index (IGII) [2, 3]: 0
- Investigator global improvement index (IGII) ([2]; Forehead, V3 (after 90 days of treatment), 10% ibuprofen gel or 3% diclofenac gel): 2.3
- Investigator global improvement index (IGII) ([2]; Hand, V0 (start of the study)): 0
- Investigator global improvement index (IGII) ([2]; Hand, V3 (after 90 days of treatment), 10% ibuprofen gel or 3% diclofenac gel): 2.4
